Results taken from patent publication US20040101900A1, “Assay for rapid detection of TNT” (published 2004).

How the values were obtained:
[1] = storage stability of the fluorescent analog; details: stored in solution or kept at room temperature
anti-TNT antibody A1.1.1 [2] = assay: microtiter plate-based homogeneous competitive fluoroimmunoassay, A1.1.1 antibody; details: plate-based homogeneous assay
anti-TNT antibody 11B3 = assay: microtiter plate-based homogeneous competitive fluoroimmunoassay, 11B3 antibody; details: plate-based homogeneous assay
anti-TNT antibody A1.1.1 [3] = assay: cuvette titration of anti-TNT antibody/Cy5-DAP-TNP complex formation; details: 5 nM Cy5-DAP-TNP, A1.1.1 added 0.36 nM to 6.54 nM, PBS, 22° C.
anti-TNT antibody A1.1.1 [4] = assay: plate-based homogenous cross reactivity assay in PBS; details: homogeneous format, calculated from the concentrations corresponding to half of the maximum signal, 7 to 5000 μg/L

cyanine diaminopentane trinitrophenyl
stability on storage [1]: prone to degradation
increase in fluorescence on addition of Cy5-DAP-TNP to antibody (anti-TNT antibody A1.1.1 [2]): about two-fold
increase in fluorescence on addition of Cy5-DAP-TNP to antibody (anti-TNT antibody 11B3): about two-fold
increase in fluorescence intensity over the course of the titration (anti-TNT antibody A1.1.1 [3]): three-fold

Cc1c(N)cc([N+](=O)[O-])cc1[N+](=O)[O-]
Percent cross-reactivity (anti-TNT antibody A1.1.1 [4]): 9%
